# Assay results as given in paper PMC10424242, “Macrocyclic Peptidomimetic Plasmepsin X Inhibitors with Potent In Vitro and In Vivo Antimalarial Activity” (Journal of Medicinal Chemistry, 2023).
# Protein sequences, listed by entry. Tags and fused reporters are not part of them. Residues count along the entry.
# UniProt P07339, 65-412: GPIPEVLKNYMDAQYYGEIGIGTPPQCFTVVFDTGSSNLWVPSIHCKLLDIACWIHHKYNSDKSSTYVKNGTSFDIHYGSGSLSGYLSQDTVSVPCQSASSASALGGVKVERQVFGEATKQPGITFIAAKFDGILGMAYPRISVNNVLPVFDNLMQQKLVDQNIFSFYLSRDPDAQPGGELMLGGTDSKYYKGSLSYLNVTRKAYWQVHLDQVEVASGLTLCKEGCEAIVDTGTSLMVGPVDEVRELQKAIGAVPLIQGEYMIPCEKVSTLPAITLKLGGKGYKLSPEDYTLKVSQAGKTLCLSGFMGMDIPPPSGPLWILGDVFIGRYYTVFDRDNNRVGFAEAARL
# UniProt P56817, 46-501: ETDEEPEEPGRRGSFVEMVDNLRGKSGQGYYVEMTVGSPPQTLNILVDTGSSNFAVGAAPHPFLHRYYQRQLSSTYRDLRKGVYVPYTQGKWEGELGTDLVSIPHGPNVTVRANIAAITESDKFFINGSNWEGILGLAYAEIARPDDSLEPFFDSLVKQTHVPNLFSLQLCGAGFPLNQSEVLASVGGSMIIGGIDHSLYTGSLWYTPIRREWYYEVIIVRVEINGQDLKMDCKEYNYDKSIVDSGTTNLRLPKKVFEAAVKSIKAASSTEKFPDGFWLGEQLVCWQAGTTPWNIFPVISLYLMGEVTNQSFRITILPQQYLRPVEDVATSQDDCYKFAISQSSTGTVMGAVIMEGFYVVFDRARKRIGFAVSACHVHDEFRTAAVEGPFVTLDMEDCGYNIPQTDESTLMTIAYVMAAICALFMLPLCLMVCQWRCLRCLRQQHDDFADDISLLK
# Assays:
# [1] = test system: P. falciparum strain Dd2 (chloroquine-resistant); assay: microbe, parasite or virus in culture; details: Plasmodium falciparum, DD2, 96 h, read-out: flow cytometry Dd2 EC50 (nM)
# [2] = test system: P. falciparum strain 3D7 (chloroquine-sensitive); assay: microbe, parasite or virus in culture; details: Plasmodium falciparum, 3D7, 96 h, read-out: flow cytometry 3D7 EC50 (nM)
# [3] = target: cathepsin D (CatD) (Homo sapiens, UniProt P07339); assay: FRET-based CatD inhibition assay (selectivity counter screen); format: biochemical; details: versus PMX
# Method: (§1) A fluorescence resonance energy transfer (FRET)-based assay was performed to assess the ability of the compounds to inhibit PMIV, CatD, and BACE1. Serial dilutions of test compounds were dispensed in a white 96-well plate. […] The mixture was incubated for 20 min at 37 °C. […] IC50 values were calculated with GraphPad Prism 8.0 using the nonlinear regression, variable slope (four parameters). Compounds were tested in triplicate.
# [4] = target: BACE1 (Homo sapiens, UniProt P56817); assay: FRET-based BACE1 inhibition assay (selectivity counter screen); format: biochemical; details: versus PMX
# Method: as §1
Structure (SMILES),EC50 [1] [nM],EC50 [2] [nM],selectivity against CatD [3] [×],selectivity against BACE1 [4] [×]
"CCCN1CCCCCOc2cccc(c2)C[C@@H]([C@H](O)CNC(C)(C)c2cccc(OC)c2)NC(=O)c2cccc(c2)C1=O [7g, (S)-4-((R)-1-Hydroxy-2-((2-(3-methoxyphenyl)propan-2-yl)amino)ethyl)-13-propyl-7-oxa-3,13-diaza-1,6(1,3)-dibenzenacyclotetradecaphane-2,14-dione]",9.6 ± 1,6.7 ± 2.3,,
"CCCN1CCCCc2cccc(c2)C[C@@H]([C@H](O)CNC(C)(C)c2cccc(OC)c2)NC(=O)c2cccc(c2)C1=O [7j, (S)-4-((R)-1-Hydroxy-2-((2-(3-methoxyphenyl)propan-2-yl)amino)ethyl)-11-propyl-3,11-diaza-1,6(1,3)-dibenzenacyclododecaphane-2,12-dione]",4.4 ± 0.5,2.7 ± 0.5,,
COc1cccc(C(C)(C)NC[C@@H](O)[C@@H]2Cc3cccc(c3)OCCCCN(CC(C)(C)C)C(=O)c3cccc(c3)C(=O)N2)c1 [7e],3.5 ± 0.4,2.2 ± 0.6,,
"COc1cccc(C(C)(C)NC[C@@H](O)[C@@H]2Cc3cccc(c3)OCCCCN(CCN(C)C)C(=O)c3cccc(c3)C(=O)N2)c1 [7f, (S)-12-(2-(Dimethylamino)ethyl)-4-((R)-1-hydroxy-2-((2-(3-methoxyphenyl)propan-2-yl)amino)ethyl)-7-oxa-3,12-diaza-1,6(1,3)-dibenzenacyclotridecaphane-2,13-dione]",9.6 ± 0.7,6.5 ± 1.2,,
"CCCN1CCCCCc2cccc(c2)C[C@@H]([C@H](O)CNC(C)(C)c2cccc(OC)c2)NC(=O)c2cccc(c2)C1=O [7k, (S)-4-((R)-1-Hydroxy-2-((2-(3-methoxyphenyl)propan-2-yl)amino)ethyl)-12-propyl-3,12-diaza-1,6(1,3)-dibenzenacyclotridecaphane-2,13-dione]",0.9 ± 0.2,0.6 ± 0.1,> 100,> 100
"COc1cccc(C(C)(C)NC[C@@H](O)[C@@H]2Cc3cccc(c3)OCCCCNC(=O)c3cccc(c3)C(=O)N2)c1 [7b, (S)-4-((R)-1-Hydroxy-2-((2-(3-methoxyphenyl)propan-2-yl)amino)ethyl)-7-oxa-3,12-diaza-1,6(1,3)-dibenzenacyclotridecaphane-2,13-dione]",13.1 ± 3.1,6.4 ± 0.9,,
"CCCN1CCOCCc2cccc(c2)C[C@@H]([C@H](O)CNC(C)(C)c2cccc(OC)c2)NC(=O)c2cccc(c2)C1=O [7i, (S)-4-((R)-1-Hydroxy-2-((2-(3-methoxyphenyl)propan-2-yl)amino)ethyl)-12-propyl-9-oxa-3,12-diaza-1,6(1,3)-dibenzenacyclotridecaphane-2,13-dione]",2 ± 0.3,2 ± 0.3,,
"COc1cccc(C(C)(C)NC[C@@H](O)[C@@H]2Cc3cccc(c3)OCCCCN(CCC(F)(F)F)C(=O)c3cccc(c3)C(=O)N2)c1 [7d, (S)-4-((R)-1-Hydroxy-2-((2-(3-methoxyphenyl)propan-2-yl)amino)ethyl)-12-(3,3,3-trifluoropropyl)-7-oxa-3,12-diaza-1,6(1,3)-dibenzenacyclotridecaphane-2,13-dione]",9.5 ± 1.4,6.2 ± 1,,
"CCCN1CCCCOc2cccc(c2)C[C@@H]([C@H](O)CNC(C)(C)c2cccc(OC)c2)NC(=O)c2cccc(c2)C1=O [7a, (S)-4-((R)-1-Hydroxy-2-((2-(3-methoxyphenyl)propan-2-yl)amino)ethyl)-12-propyl-7-oxa-3,12-diaza-1,6(1,3)-dibenzenacyclotridecaphane-2,13-dione]",4.7 ± 0.5,1 ± 0.3,,
"COc1cccc(C(C)(C)NC[C@@H](O)[C@@H]2Cc3cccc(c3)OCCCCN(C)C(=O)c3cccc(c3)C(=O)N2)c1 [7c, (S)-4-((R)-1-Hydroxy-2-((2-(3-methoxyphenyl)propan-2-yl)amino)ethyl)-12-methyl-7-oxa-3,12-diaza-1,6(1,3)-dibenzenacyclotridecaphane-2,13-dione]",4.9 ± 0.9,2.6 ± 0.1,,
CCCN1CCOc2cccc(c2)C[C@@H]([C@H](O)CNC(C)(C)c2cccc(OC)c2)NC(=O)c2cccc(c2)C1=O [7h],6.7 ± 1,0.8 ± 0.4,,
